ChEMBL document CHEMBL1130040, “Synthesis and structure-activity relationships of a new model of arylpiperazines. 2. Three-dimensional quantitative structure-activity relationships of hydantoin-phenylpiperazine derivatives with affinity for 5-HT1A and alpha 1 receptors. A comparison of CoMFA models” (J Med Chem, 1997)

Sequences of proteins named here, by UniProt entry; tags and fusion partners are left off.
UniProt P19327, whole entry: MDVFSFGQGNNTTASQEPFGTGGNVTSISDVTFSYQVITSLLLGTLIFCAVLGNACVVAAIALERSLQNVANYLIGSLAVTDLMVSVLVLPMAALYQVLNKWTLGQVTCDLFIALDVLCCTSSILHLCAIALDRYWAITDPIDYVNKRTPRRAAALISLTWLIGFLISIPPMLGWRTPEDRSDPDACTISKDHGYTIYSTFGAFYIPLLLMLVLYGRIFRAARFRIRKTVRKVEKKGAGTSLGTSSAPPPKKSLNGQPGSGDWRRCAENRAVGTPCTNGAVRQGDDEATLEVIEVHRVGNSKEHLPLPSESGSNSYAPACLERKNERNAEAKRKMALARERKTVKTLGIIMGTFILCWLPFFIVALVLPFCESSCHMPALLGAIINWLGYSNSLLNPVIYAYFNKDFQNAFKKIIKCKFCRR

Target: 5-hydroxytryptamine receptor 1A (Rattus norvegicus, UniProt P19327)
Assay: Tested in vitro for binding affinity by measuring its ability to inhibit [3H]8-OH-DPAT binding at 5-hydroxytryptamine 1A receptor in rat cerebral cortex membranes.
Assay type: cell membranes
In short: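 Rat cortex homogenized in ice-cold 50 mM Tris-HCl (pH 7.7), spun at 28000g, washed twice, preincubated 37 °C 10 min, resuspended in Tris/5 mM MgSO4/0.5 mM EDTA (pH 7.4). About 1 mg protein incubated 15 min at 37 °C with 0.6 nM [3H]-8-OH-DPAT and competitor, in buffer with 10 nM clonidine and 30 nM prazosin. Nonspecific binding: 10 μM 5-HT. Prescreen at 10^-6 M; curves run if displacement ≥55%.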

**Q.** With `O=C1C2CCCCN2C(=O)N1CCCCN1CCN(c2ccc([N+](=O)[O-])cc2)CC1` (stereo unspecified) as the compound, how does the Ki read?
**A.** 2580 nM
